Measurements: ChEMBL document CHEMBL1140844, “2-[(3-Methoxyphenylethyl)phenoxy]-based ABCB1 inhibitors: effect of different basic side-chains on their biological properties” (J Med Chem, 2008)

Protein sequences, listed by entry. Tags and fused reporters are not part of them.
UniProt P08183, whole entry: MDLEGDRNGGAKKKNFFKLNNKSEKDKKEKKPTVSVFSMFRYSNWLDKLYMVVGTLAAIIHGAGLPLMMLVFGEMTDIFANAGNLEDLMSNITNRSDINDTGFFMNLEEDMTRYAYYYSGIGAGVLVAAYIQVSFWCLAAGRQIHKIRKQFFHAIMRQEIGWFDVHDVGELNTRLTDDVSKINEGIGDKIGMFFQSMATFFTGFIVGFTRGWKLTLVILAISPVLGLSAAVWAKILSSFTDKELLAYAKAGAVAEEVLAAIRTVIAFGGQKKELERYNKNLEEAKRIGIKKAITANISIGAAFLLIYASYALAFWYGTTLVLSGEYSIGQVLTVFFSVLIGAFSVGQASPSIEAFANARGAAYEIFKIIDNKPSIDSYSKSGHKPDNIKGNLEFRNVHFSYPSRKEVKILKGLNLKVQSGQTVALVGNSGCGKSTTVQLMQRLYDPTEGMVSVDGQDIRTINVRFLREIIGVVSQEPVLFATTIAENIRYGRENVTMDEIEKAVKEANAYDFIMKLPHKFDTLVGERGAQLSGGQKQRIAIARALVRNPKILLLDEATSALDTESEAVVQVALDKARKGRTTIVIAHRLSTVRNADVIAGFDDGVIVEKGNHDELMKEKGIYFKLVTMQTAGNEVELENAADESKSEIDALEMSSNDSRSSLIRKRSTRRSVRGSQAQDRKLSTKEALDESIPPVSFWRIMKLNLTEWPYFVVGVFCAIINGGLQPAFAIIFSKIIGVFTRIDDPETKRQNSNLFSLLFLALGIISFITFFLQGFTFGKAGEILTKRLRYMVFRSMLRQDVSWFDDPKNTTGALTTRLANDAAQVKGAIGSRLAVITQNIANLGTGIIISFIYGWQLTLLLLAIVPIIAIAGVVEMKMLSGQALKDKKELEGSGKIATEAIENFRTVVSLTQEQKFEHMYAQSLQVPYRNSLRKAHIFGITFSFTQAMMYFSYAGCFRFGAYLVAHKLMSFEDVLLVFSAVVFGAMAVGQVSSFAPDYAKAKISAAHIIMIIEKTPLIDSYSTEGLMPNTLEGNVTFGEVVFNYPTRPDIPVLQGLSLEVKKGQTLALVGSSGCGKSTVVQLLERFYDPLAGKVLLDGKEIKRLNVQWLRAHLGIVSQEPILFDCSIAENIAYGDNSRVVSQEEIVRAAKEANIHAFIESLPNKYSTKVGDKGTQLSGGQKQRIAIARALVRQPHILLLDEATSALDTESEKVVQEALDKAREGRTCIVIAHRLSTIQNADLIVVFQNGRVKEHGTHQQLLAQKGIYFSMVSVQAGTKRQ

Tests used:
[1] = target: T1, ATP-dependent translocase ABCB1 (Homo sapiens, UniProt P08183); assay: Inhibition of ABCB1-mediated [3H]vinblastine transportation in human Caco-2 cells; assay type: cell-based
In short: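 Caco-2 monolayers grown 21 days (TEER >800 Ω × cm²). 20 nM [3H]vinblastine added to the basolateral side with or without compound (200 nM–400 µM) for 120 min at 37 °C. Appearance on the apical side measured by scintillation counting. IC50 from nonlinear fit. Mean of three experiments, triplicate samples.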

[2] = target: T1, ATP-dependent translocase ABCB1; assay: Inhibition of ABCB1 transfected in MDCK cells assessed as increase in calcein-AM accumulation; assay type: cell-based
In short: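 MDCK-ABCB1 cells (50000/well) grown to confluence overnight. Preincubated with compound in medium for 30 min at 37 °C, then 2.5 µM calcein-AM (final) for 30 min. Washed with ice-cold PBS and fluorescence read at ex 485/em 535 nm. IC50 fitted from % fluorescence increase over untreated cells vs log dose. Mean of three experiments, triplicate samples.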

[3] = system: Caco-2; assay: Ratio of apparent permeability from basolateral to apical over apical to basolateral side of human Caco-2 cells after 120 mins by UV-visible spectroscopy; settings: caco-2, 2 h
[4] = target: T1, ATP-dependent translocase ABCB1; assay: Inhibition of ABCB1

| SMILES | IC50 [2] | IC50 [4] | IC50 [1] | Ratio [3] |
| --- | --- | --- | --- | --- |
| COc1cccc(CCc2ccccc2OCCCCCN2CCN(c3ccc(F)cc3)CC2)c1 | – | – | 2120 nM | 5.1 |
| COc1cccc(CCc2ccccc2OCCCCCN2CCN(c3cccc(Cl)c3)CC2)c1 | – | – | 2650 nM | 6.2 |
| COc1cccc(CCc2ccccc2OCCN2CCN(c3ncccn3)CC2)c1 | – | – | 2000 nM | 6.6 |
| COc1cccc(CCc2ccccc2OCCCCN2CCN(c3ccc(F)cc3)CC2)c1 | – | – | 1200 nM | 3.5 |
| COc1cccc(CCc2ccccc2OCCCN2CCN(c3ccc(F)cc3)CC2)c1 | – | – | 5300 nM | 2.5 |

The next lines start with results.

| IC50 [2] | IC50 [4] | SMILES | IC50 [1] | Ratio [3] |
| --- | --- | --- | --- | --- |
| 1780 nM | – | COc1cccc(CCc2ccccc2OCCCCN2CCc3ccccc3C2)c1 | 80 nM | 6.9 |
| – | 250 nM | COc1cccc(CCc2ccccc2OCc2cccc(OC)c2OC)c1 | – | – |
